# Yeast mating assay 2: variants of the scFv Ab-95

Reference: Engelhart et al. 2022, doi:10.1038/s41597-022-01779-4. File: FLAb, binding data.

Antigen: PDVDLGDISGINAS, a 14-residue peptide of the SARS-CoV-2 spike HR2 region.

Parent scFv Ab-95: VH joined to VL by a (GGGGS)3 linker. Changes lie in the light chain CDRs alone.
VH: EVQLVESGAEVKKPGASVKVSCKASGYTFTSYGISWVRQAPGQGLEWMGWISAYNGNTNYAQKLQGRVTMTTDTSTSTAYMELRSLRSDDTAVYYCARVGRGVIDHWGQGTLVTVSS
VL: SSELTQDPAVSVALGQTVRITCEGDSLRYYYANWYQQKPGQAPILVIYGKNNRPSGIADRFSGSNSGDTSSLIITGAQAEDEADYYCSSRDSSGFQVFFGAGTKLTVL

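The starting antibody came from a phage panning campaign against this peptide. The library (AAYL52) carries one to three amino acid substitutions per variant, with no insertions or deletions. The scFvs were displayed on barcoded MATa yeast, the peptide on MATalpha yeast. After mating in shaken culture at 30 °C for 16 h, diploids were selected and their barcode pairs sequenced. Read counts were normalised to the haploid input and turned into Kd by a linear fit to BCL2-family pairs of known affinity, for each replicate. The assay was run in three technical replicates.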

Variants are written as CDR1, CDR2 and CDR3 of the light chain (limits as in the source). Parent: EGDSLRYYYAN, GKNNRPS, SSRDSSGFQVF. Values are log10 of the apparent Kd in nM; lower means stronger binding. A mean of the replicates is given; it leaves out those without a signal. An entry "nd" has no value in the source: the pair was not observed among the diploids in any replicate. This suggests poor binding but is not conclusive. Entries are sorted by rising average, undetected variants last.

| mean log10 Kd (nM) | seen in | CDR-L1 | CDR-L2 | CDR-L3 |
|---|---|---|---|---|
| 0.67 | 3/3 | EGDSLLKSYAN | GKNNRPS | SSRDSSGFQVF |
| 1.83 | 3/3 | EGDSLRYKYAN | GKNNRPS | GSRDSSGFLVF |
| 1.89 | 3/3 | EGDSLDDYYAN | GKNNRPS | SCRDSSGFQVF |
| 2.00 | 3/3 | EGDSLRYYYNN | GKNNRPS | SSRDSCGGQVF |
| 2.20 | 3/3 | EGDSLRYYYAN | GRNNRPS | QSRDSIGFQVF |
| 2.43 | 3/3 | EGDSLRYYYAN | GSNGRMS | SSRDSSGFQVF |
| 2.44 | 1/3 | EKDSLRYYVAN | GKNNRPS | SSRDSSGFQVF |
| 2.54 | 3/3 | EGDFLRYYYAN | GKNVKPS | SSRDSSGFQVF |
| 2.55 | 3/3 | EGDSLRNYYAN | GKYNRPS | SSRDSSGVQVF |
| 2.56 | 3/3 | EGDSLAYYYAN | GKNNRPS | SSRDKSGFQDF |
| 2.68 | 2/3 | VGDSLRYYYAN | GKNNRMS | SSRDSSGFQVN |
| 2.69 | 3/3 | EGDSLRYYYAN | GKNNRQS | TSRDSSSFQVF |
| 2.70 | 3/3 | EGDSLRYTYAN | GKNNSPW | SSRDSSGFQVF |
| 2.75 | 3/3 | MGDSLRYYYAN | GKNNHPK | SSRDSSGFQVF |
| 2.82 | 3/3 | EGDSLIYYYAN | GKNNRPS | SSRDSSGFQVW |
| 2.82 | 3/3 | EGDHLRYYYAN | GKNVRPI | SSRDSSGFQVF |
| 2.90 | 1/3 | EGDSTRYYYAN | GKNNRPV | SSRDSSDFQVF |
| 2.90 | 3/3 | EGDSLRYYYAN | GKNNRPS | SEQDSSGFQVF |
| 2.94 | 1/3 | EGDSLRYYYAN | SKNNRPS | SSRDGSGFQVK |
| 3.07 | 1/3 | TGDSLRYYYAN | GKNNRPR | SSKDSSGFQVF |
| 3.08 | 3/3 | EGDSLRYYYAN | GKDARPS | SSRGSSGFQVF |
| 3.10 | 2/3 | EGDSLRYYYAN | GKNNKPS | SSRNSSGFQVT |
| 3.16 | 2/3 | EGHSLRYYYAN | TKNNRPS | SSRDSHGFQVF |
| 3.21 | 3/3 | EGDELRYYYAN | PKTNRPS | SSRDSSGFQVF |
| 3.26 | 3/3 | SGDSLRYYYAN | GLENRPS | SSRDSSGFQVF |
| 3.30 | 3/3 | EGDSLRYYYAN | GKNNRMS | VSRDSSGFQVF |
| 3.37 | 2/3 | EGDSLMYYYAN | GKNNRPS | SSRDSSGFLVF |
| 3.38 | 2/3 | EGDSLRIYYAN | GFNNRPS | SSRDYSGFQVF |
| 3.47 | 2/3 | KGDSLRYYYAN | GKNNRPS | SSRWSWGFQVF |
| 3.49 | 1/3 | EGDSLRYYYAN | GKNNRCS | SSRDSNGPQVF |
| 3.62 | 2/3 | EGDSLREYYAN | GKNNRPS | SSRESSGFQVT |
| 3.64 | 1/3 | EGTCLRYYYAN | GKNNRDS | SSRDSSGFQVF |
| 3.81 | 1/3 | AGDSLRYYYAN | EKNNRPS | SSEDSSGFQVF |
| 3.83 | 2/3 | EGDSLVYYYAN | GKNNRPS | SSRDSSTFKVF |
| 3.87 | 2/3 | EGDSLRYYYQN | LKNNDPS | SSRDSSGFQVF |
| 3.88 | 2/3 | EGTSLRYYYAN | GKNNQPS | SSRRSSGFQVF |
| 3.91 | 1/3 | EGDSLRYYYYN | GKNNRPI | SSKDSSGFQVF |
| 3.98 | 2/3 | EGDSWRYYYEN | GKNNRPV | SSRDSSGFQVF |
| 4.13 | 1/3 | EGDSTRYVYAN | GKFNRPS | SSRDSSGFQVF |
| 4.14 | 2/3 | EGDVLRYYYAW | GKHNRPS | SSRDSSGFQVF |
| 4.18 | 1/3 | EGDSPRYYYAN | NKNNRPS | SSRDRSGFQVF |
| 4.19 | 2/3 | EGKSLRYYYAN | GKNVRPS | SSRDSSLFQVF |
| 4.21 | 2/3 | EGDSLRLYYAN | GKNNRPS | NSRDSSTFQVF |
| 4.23 | 3/3 | EGDSLRVYYAN | GPNNRPS | SSRDSSGEQVF |
| 4.25 | 3/3 | EGDSLRYYYLN | GKNNKPS | SSRQSSGFQVF |
| 4.27 | 1/3 | EGDSLRYYYAN | GLNNRPF | SSRDSSGFVVF |
| 4.29 | 1/3 | EGDSLRYYTAN | GKKNRPS | SSRDSSGFQVM |
| 4.47 | 1/3 | EGDSGRYYYAN | GKNNRPS | SMRDSSLFQVF |
| 4.52 | 2/3 | EGDMLRYPYAN | VKNNRPS | SSRDSSGFQVF |
| 4.55 | 1/3 | EGDSLRYYYAQ | GKNNRPS | SSRDESGQQVF |
| 4.73 | 2/3 | EGDSLRYYYAN | GKNKRPS | SSRDSSGSWVF |
| 4.93 | 1/3 | EGDFLRYYYWN | YKNNRPS | SSRDSSGFQVF |
| 5.13 | 1/3 | PGDSLRYYYAN | IKNNRPS | SSRDSSGFQVV |
| nd | 0/3 | EGDSLRYYDAF | LKNNRPS | SSRDSSGFQVF |
| nd | 0/3 | EGDIWRYYYAN | GKNVRPS | SSRDSSGFQVF |
| nd | 0/3 | EGDSLRYYYAN | GWNNRPS | SQRDSSGFGVF |
| nd | 0/3 | EGDSLRYYYAV | GKYNRPS | SSRDSSGFQVI |
| nd | 0/3 | EGDSLRYYYAN | SKNNRQS | DSRDSSGFQVF |
| nd | 0/3 | EGDSYRYYIAN | GKNNWPS | SSRDSSGFQVF |
| nd | 0/3 | EGDSLRYYYAN | DKNNDPS | SSRDSSFFQVF |
| nd | 0/3 | EGDELRYYYAF | GKNNRPN | SSRDSSGFQVF |

The 4 strongest on average among those seen in every replicate, once more:

{"CDR-L1": "EGDSLLKSYAN", "CDR-L2": "GKNNRPS", "CDR-L3": "SSRDSSGFQVF", "mean log10 Kd (nM)": "0.67", "seen in": "3/3"}
{"CDR-L1": "EGDSLRYKYAN", "CDR-L2": "GKNNRPS", "CDR-L3": "GSRDSSGFLVF", "mean log10 Kd (nM)": "1.83", "seen in": "3/3"}
{"CDR-L1": "EGDSLDDYYAN", "CDR-L2": "GKNNRPS", "CDR-L3": "SCRDSSGFQVF", "mean log10 Kd (nM)": "1.89", "seen in": "3/3"}
{"CDR-L1": "EGDSLRYYYNN", "CDR-L2": "GKNNRPS", "CDR-L3": "SSRDSCGGQVF", "mean log10 Kd (nM)": "2.00", "seen in": "3/3"}

Nonspecific signal, from three strains lacking the peptide, appeared in 28% of pairings of library AAYL52, centred on 3.91 (5% of these signals below 2.90); values are not corrected for it. In this assay the parent's reference entry averaged 2.31; its copy inside this library read 2.25.